{"source": "paper PMC12987686", "about": "(RSC pharmaceutics, 2025)", "origin": "cited, not measured here", "conditions": "cited from earlier work"}
{"substance": "^13N-ammonia", "values": [{"measurement": "first-pass extraction fraction", "result": "~ 80%"}]}
